Assay results: patent publication US9243020B2, “Selective glycosidase inhibitors and uses thereof” (priority 2010, dated 2016)

The chains behind the UniProt entries cited, without tags or fusion partners. Where a name states a change or a piece, a line headed by the entry shows the natural chain unless it says otherwise.
UniProt O60502: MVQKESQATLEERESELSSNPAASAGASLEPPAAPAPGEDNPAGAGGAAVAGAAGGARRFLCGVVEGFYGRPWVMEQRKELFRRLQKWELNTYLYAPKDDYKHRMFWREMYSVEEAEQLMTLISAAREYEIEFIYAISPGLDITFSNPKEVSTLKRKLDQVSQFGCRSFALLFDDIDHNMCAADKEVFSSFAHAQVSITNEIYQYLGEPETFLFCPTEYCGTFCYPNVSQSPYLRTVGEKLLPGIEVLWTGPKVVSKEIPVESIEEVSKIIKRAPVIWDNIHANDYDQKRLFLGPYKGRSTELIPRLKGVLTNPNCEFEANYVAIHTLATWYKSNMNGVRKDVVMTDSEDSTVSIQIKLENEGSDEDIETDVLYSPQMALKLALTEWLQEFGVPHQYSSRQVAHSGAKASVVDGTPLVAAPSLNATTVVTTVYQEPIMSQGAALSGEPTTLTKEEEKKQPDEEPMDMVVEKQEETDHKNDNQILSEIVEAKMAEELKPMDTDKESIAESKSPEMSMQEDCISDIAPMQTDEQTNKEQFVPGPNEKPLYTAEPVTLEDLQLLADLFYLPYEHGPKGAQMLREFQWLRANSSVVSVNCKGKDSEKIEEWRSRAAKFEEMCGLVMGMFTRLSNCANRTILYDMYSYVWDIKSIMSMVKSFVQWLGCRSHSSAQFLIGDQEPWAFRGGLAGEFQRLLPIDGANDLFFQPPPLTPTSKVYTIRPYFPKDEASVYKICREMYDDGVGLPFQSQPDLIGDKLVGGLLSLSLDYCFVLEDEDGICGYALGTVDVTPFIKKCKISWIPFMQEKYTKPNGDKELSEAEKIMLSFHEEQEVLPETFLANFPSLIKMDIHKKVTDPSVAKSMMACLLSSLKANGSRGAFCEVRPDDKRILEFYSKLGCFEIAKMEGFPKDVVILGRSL

Target: human O-GlcNAcase (Homo sapiens (Human), UniProt O60502)
Assay: Assay for determination of Ki values for inhibition of O-GlcNAcase activity (fluorescence-based)
Format: biochemical
Details: purified human O-GlcNAcase 0.7 nM, 2 mM 4-methylumbelliferyl N-acetyl-β-D-glucosaminide, pH 7.0, Cheng-Prusoff; read-out: Fluorescence-based hOGA Ki

Structure (SMILES): CCNC1=N[C@@H]2C[C@H](O)[C@@H](CO)O[C@@H]2S1 [Example 2, (3aR,5R,6S,7aR)-2-(ethylamino)-5-(hydroxymethyl)-5,6,7,7a-tetrahydro-3aH-pyrano[3,2-d]thiazol-6-ol]
- Ki: 44 nM
